Read-outs that look alike come from different tables or passages of the source. Some compounds may have been tested in ways that are not shown here.
Tests used:
[1] = % of fentanyl; cited from earlier work
[2] = Solubility recrystallization study (drug solubility in polymer); details: for Solubility assessed by recrystallization study: 4 weeks 40° C./75% RH
[3] = 1 mcg/hr sufentanil, osmotic pump; cited from earlier work
[4] = cited from earlier work

CCC(=O)N(c1ccccc1)C1(COC)CCN(CCc2cccs2)CC1
solubility in skin relative to fentanyl [1]: 25-50%
saturation solubility within patch material ([2]; PIB matrix material): about 2.5 % (w/w)
Solubility assessed by recrystallization study ([2]; in Bio-PSA 7-4602, silicone elastomer): 7 ± 1.5%
Solubility assessed by recrystallization study ([2]; in Durotak 387-2516, polyacrylate copolymer): 7 ± 1.5%
Solubility assessed by recrystallization study ([2]; in Oppanol B100 and B10, polyisobutylene): 2.5 ± 0.3%
average plasma concentration at steady state delivery of 1 mcg/hr [3]: about 15.2 pg/ml
Mean Plasma Concentration ([4]; i.v. infusion 0.10 microg/kg/h, 24 h, postoperative major abdominal or urological surgery (Menigaux et al. '01)): 0.11 ng/mL
Mean Plasma Concentration ([4]; i.v. infusion 0.11 microg/kg/h, 24 h, postoperative major abdominal surgery (Geller et al. '93)): ~0.03 to 0.06 ng/mL
Mean Plasma Concentration ([4]; i.v. infusion 0.12 microg/kg/h, 17 h, postoperative elective major gynecological surgery (Lehmann et al. '91)): 0.035 ng/mL
Mean Plasma Concentration ([4]; i.v. infusion 0.15 microg/kg/h, 6 h, normal human volunteers (Fisher et al. '03)): [~110] pg/ml

— patent publication US20090130190A1
